Paper PMC7723054
The list shows a part of the results.

T1: LIN28A (human?, UniProt Q9H9Z2 1-209)
T1 sequence: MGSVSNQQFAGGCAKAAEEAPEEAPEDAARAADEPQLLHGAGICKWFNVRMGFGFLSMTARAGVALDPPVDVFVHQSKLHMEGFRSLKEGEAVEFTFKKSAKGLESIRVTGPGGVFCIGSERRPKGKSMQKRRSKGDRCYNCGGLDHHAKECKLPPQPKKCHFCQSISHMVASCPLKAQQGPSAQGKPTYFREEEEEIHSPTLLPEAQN

T2: CIRBP (Homo sapiens, UniProt Q14011 1-172)
T2 sequence: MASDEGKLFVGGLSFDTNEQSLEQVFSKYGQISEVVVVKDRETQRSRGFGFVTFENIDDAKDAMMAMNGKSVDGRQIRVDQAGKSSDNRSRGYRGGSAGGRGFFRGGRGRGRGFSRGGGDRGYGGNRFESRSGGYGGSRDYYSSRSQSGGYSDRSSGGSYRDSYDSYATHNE

T3: DHX36 (Homo sapiens, UniProt Q9H2U1 1-1008)
T3 sequence: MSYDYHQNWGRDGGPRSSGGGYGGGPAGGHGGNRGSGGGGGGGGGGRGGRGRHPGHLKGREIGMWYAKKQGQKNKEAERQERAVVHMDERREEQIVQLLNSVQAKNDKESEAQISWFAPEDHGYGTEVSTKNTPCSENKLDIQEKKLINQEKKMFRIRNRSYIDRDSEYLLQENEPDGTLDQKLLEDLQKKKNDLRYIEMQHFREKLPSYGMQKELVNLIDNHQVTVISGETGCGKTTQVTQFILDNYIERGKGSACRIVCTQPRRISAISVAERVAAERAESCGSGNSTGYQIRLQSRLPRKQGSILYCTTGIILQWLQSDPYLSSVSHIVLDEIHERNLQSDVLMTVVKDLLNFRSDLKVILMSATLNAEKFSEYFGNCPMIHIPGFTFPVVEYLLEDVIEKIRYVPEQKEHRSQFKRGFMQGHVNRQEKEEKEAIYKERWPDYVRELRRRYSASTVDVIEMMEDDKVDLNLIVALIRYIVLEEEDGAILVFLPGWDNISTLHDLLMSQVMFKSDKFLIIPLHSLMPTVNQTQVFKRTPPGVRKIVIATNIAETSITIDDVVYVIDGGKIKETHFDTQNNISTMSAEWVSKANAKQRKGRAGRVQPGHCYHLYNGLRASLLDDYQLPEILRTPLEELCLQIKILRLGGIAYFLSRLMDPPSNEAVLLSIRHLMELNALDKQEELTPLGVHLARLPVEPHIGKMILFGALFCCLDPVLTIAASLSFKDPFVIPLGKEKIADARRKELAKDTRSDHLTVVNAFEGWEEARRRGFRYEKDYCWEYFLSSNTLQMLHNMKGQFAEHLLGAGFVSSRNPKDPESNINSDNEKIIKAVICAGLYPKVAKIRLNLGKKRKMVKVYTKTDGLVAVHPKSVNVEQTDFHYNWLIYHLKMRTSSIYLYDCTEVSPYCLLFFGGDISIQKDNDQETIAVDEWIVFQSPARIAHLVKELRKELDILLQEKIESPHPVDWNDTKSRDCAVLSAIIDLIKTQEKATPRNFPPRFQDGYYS

B1: hsa-mir-5004 (structured_RNA)
RNA: GGGAACGGAAAGAACGACGACGCAAACCGGUGUACGAAGUUUCAGCCACGAGAUUGGGUUGUGCAGAGGCUGACACUUGGCUGAAGCUUCGUGCAC
B2: hsa-mir-493 (structured_RNA)
RNA: GGGACGGGCAAGUCAGCGUGAUAUUCUGGGUGUACGAAGUUUCAGCUUCAUUCAUUCGUUUGCACAUUCGGUGAAGCUGAAGCUUCGUGCAC
B3: hsa-mir-4430 (structured_RNA)
RNA: GGGACCGAGCGGGAUACUUAGCAAUAGUGGUGUACGAAGUUUCAGCGGAGAUCGUACCGCUGAAGCUUCGUGCAC
B4: hsa-mir-10b (structured_RNA)
RNA: GGGAAGUCACUACCCGCGCACAGAUACUGGUGUACGAAGUUUCAGCUUGUGUGGUAUCCGUAUAGUCACAGGCUGAAGCUUCGUGCAC
B5: hsa-mir-7111 (structured_RNA)
RNA: GGGAACUGACAAUCGGGCUUUUGUUAGGGGUGUACGAAGUUUCAGCGGCCAUCUGCUAUUCGUCCACCAACCUGACUUGAUCCGCUGAAGCUUCGUGCAC
B6: hsa-mir-3176 (structured_RNA)
RNA: GGGACGUUUUCACCGGCUAACAGGCAAGGGUGUACGAAGUUUCAGCCACUCCCGGGAUCCCCAGGGACGCUGAAGCUUCGUGCAC
B7: hsa-mir-486-2 (structured_RNA)
RNA: GGGAAUUCAGUGGUGCGAGACUAGUACUGGUGUACGAAGUUUCAGCCCCGAGCUGGGCAGCAUGAAGGGCCUCGGGGCUGAAGCUUCGUGCAC
B8: hsa-mir-7-2 (structured_RNA)
RNA: GGGAACAAUGCGCACGCUGCACGUUCUAGGUGUACGAAGUUUCAGCGUUGUUGUCUUACUGCGCUCAACAACGCUGAAGCUUCGUGCAC
B9: hsa-mir-4668 (structured_RNA)
RNA: GGGACCUCUGCGAGUCAUGAUAUACCGCGGUGUACGAAGUUUCAGCUGUCUUGUAGCCAGGAUAUUGUUUUAAAGAAGCUGAAGCUUCGUGCAC
B10: hsa-mir-6839 (structured_RNA)
RNA: GGGAACUUCAACCGGUCGCGGUAAUUCGGGUGUACGAAGUUUCAGCCCCAAGCAGGCUUUGUGUGAGCAGUGAGGCUAUUUAUUCACUUGGGUGCGAGCUCACACGAAGCCUGCUUGGGGCUGAAGCUUCGUGCAC
B11: hsa-mir-940 (structured_RNA)
RNA: GGGCAGGACACGUCCGUUUAUCAAGUCUGGUGUACGAAGUUUCAGCCAGCCCCGUGUGUUGAGGAAGGAAGGGCUGAAGCUUCGUGCAC

Columns and labels:
Assay in all cases: FOREST: bead pull-down of RNA structure library v1, barcode microarray; U1A/LIN28A: 20 mM HEPES pH 7.5, 80 mM KCl, 20 mM NaCl, 10% glycerol, 2 mM DTT, 0.1 ug/uL BSA, 4 C; BG4/CIRBP/DHX36: 10 mM Tris-HCl pH 7.5, 100 mM KCl (or LiCl),; high values mean tight binding
U1A = U1A (Homo sapiens, UniProt P09012)
LIN28A = biological target: T1, LIN28A
CIRBP = biological target: T2, CIRBP
DHX36 = biological target: T3, DHX36

| Binder | binding signal (U1A) [z-score] | binding signal (LIN28A) [z-score] | binding signal (CIRBP) [z-score] | binding signal (DHX36) [z-score] |
| --- | --- | --- | --- | --- |
| B1 | 1.25 | 2.54 | 2.18 | 1.67 |
| B2 | 2.6 | 0.306 | -0.13 | -0.063 |
| B3 | 1.24 | -0.0612 | 0.966 | 0.698 |
| B4 | 1.24 | 0.155 | -0.537 | -0.845 |
| B5 | 1.24 | -0.348 | -0.231 | -0.17 |
| B6 | 1.24 | -0.388 | -0.68 | -0.477 |
| B7 | 1.23 | 0.416 | 0.0376 | 0.553 |
| B8 | 1.23 | -0.565 | -0.923 | -0.276 |
| B9 | 1.23 | 1.23 | -0.279 | -0.549 |
| B10 | 1.22 | 2.25 | -0.255 | 1.4 |
| B11 | 1.21 | 0.548 | -0.861 | 1.62 |
